scFv variants of Ab-14 (light chain) against a SARS-CoV-2 spike peptide

All variants were tested on one target, the spike HR2 peptide PDVDLGDISGINAS (SARS-CoV-2).

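Phage display of a naive human antibody library on the peptide gave the parent. This is the validation round: designs drawn from the data on random variants, tested in the same kind of assay. Group labels follow the data file (Ctrl: baseline library sampled from a position-specific scoring matrix, with some repeated check sequences; Rand: our label for a block that the file lists under HC and that is probably the random mutants of the ten best first-round binders; En: ensemble of fine-tuned language models; GP: Gaussian process model; HC: hill climbing; Gen: genetic algorithm; Gibbs: Gibbs sampling; a sequence that several methods proposed may carry one label only). The scFvs were displayed on barcoded MATa yeast, the peptide on MATalpha yeast. Mating (16 h, 30 °C) was followed by selection of diploids and sequencing of their barcodes. Read counts were normalised to the haploid input and turned into Kd by a linear fit to BCL2-family pairs of known affinity, for each replicate. The assay was run in six technical replicates.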

Ab-14 is the parent antibody, in scFv form: VH, then a 15-residue (Gly4Ser)3 linker, then VL. The heavy chain is unchanged in all variants.
VH: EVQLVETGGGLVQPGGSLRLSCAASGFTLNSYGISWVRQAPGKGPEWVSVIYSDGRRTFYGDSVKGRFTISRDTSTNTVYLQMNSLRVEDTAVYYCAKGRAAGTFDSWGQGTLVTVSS
VL: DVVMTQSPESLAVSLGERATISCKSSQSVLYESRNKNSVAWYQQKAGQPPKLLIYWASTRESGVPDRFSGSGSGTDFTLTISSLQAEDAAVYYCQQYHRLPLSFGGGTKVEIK

Each variant is given by its three light chain CDRs, as the data file delimits them; those of the parent are KSSQSVLYESRNKNSVA, WASTRES, QQYHRLPLS.
Each Kd is an estimate from the mating assay, the geometric mean of the replicates in which the pair was seen; lower is stronger.
"not detected" marks a missing value. The strain was present, yet no cells mated with the target were sequenced in any replicate, which points to weak or no binding.
In the paper, a design with two or fewer of six values counts as a poor binder.

Kd (apparent)	seen in	control signals	CDR-L1	CDR-L2	CDR-L3	group
15 nM	6 of 6	0 of 18	TLTQVTMVESYMKNSVA	QASTREE	QDYHRLPLS	En_HC
12 nM	6 of 6	0 of 18	RYQMDDIEGKTARNNIA	DGAEVYR	QQYARLPLT	En_Gibbs
19 nM	6 of 6	0 of 18	KVSDMMAFLQRNRNSVA	DNSTRGS	QQYHRLPLS	En_HC
not detected	0 of 6	0 of 18	HLSQSVLYESRNKNSVA	NASTRSS	QQYHRLPLS	GP_Gen
280 pM	6 of 6	2 of 18	KLSQVTEYESRNKNNVA	DLTTRGS	QDYHRLPLS	En_HC
2.3 nM	6 of 6	0 of 18	KLSQSVLYESRNFNSVA	NASTRMS	QQYHRLPLS	GP_Gen
not detected	0 of 6	0 of 18	KLRQVTEYESFNKNSVA	QTETREN	QDYDRLPLS	En_HC
15 nM	6 of 6	0 of 18	RSSQSVLTESANKNSVA	WASTRES	QQYHRLPLS	Ctrl
2.7 nM	6 of 6	0 of 18	KSSIVVLYESHNKNSVA	DASTRMS	QQYHRLPLS	GP_HC
5.2 nM	6 of 6	0 of 18	HITYGMYVSGRYKSNIA	QAEERAK	QQYDRLPLM	En_Gen
14 nM	6 of 6	1 of 18	ALSFEMESPHLHSNNVA	SASKLCM	QQYFTLPLS	En_Gibbs
not detected	0 of 6	0 of 18	SIRQVTDDYQATHDAIA	DASQIEP	QQYSILPLS	En_Gibbs
17 nM	6 of 6	0 of 18	HISMITLQGMRARNSVA	QMTTREN	QQYDRLPLA	En_Gen
450 pM	6 of 6	0 of 18	KLSQSVLYESRNKNSVA	EATTRES	QQYHRLPLS	GP_Gen
1.8 nM	6 of 6	0 of 18	KYSQSDGYESRNFNSVA	NASTRSH	QQYHRLPLS	GP_Gibbs
2.0 nM	6 of 6	3 of 18	KLKYQADQYGMQWNNVA	HADIRAP	QQYSKLPLN	En_Gibbs
5.7 nM	6 of 6	0 of 18	KSEQSVLYESRNFNSVA	HASTRED	QQYHRLPLS	GP_HC
120 nM	5 of 6	0 of 18	HMSQVTMYGYWNMNSVA	QTSTREE	QQYDRLPLS	En_HC
not detected	0 of 6	0 of 18	KSSQSVLYESRNKNSVA	HASTRES	TQYHEEPLS	Ctrl
18 nM	6 of 6	1 of 18	KSSQSVLTESSNKNSVA	WASTRES	QQYHRLPFS	Ctrl
5.2 nM	6 of 6	0 of 18	KIGMTLNQLMHKKNNVA	DLVMREQ	QQYARLPLS	En_Gen
1.1 nM	6 of 6	0 of 18	KAQQSELYEDRNQNSVA	NASQRLS	QQYHRLPLS	GP_Gibbs
2.0 nM	6 of 6	3 of 18	KFPQSVLYESRNKNSVA	NASTRES	QQYHRLPLS	GP_Gen
5.6 nM	6 of 6	0 of 18	QLGDEQVGETLMADNIA	HSDFRAD	QQYFRLPLL	En_Gibbs
390 pM	6 of 6	1 of 18	KQSQSVQPESRNKNSVA	DASTRES	QQYHRLPLS	Rand
800 pM	6 of 6	0 of 18	KLQQMWLYGSRNKNSVA	DASQREE	QQYHRLPLS	GP_Gibbs
3.9 nM	6 of 6	1 of 18	KLQQSHLYESRNKNSVA	NASTREV	QQYHRLPLS	GP_Gen
1.7 nM	6 of 6	2 of 18	KLEQSTLYESRNPNSVA	WASTRES	QQYHRLPLS	GP_HC
29 nM	6 of 6	0 of 18	KSSQSVLYESRNKNSVA	RASTRES	QQYHRLPLS	Ctrl
44 nM	6 of 6	2 of 18	MISQIYNMGQFAINSVA	QASIRNA	QQYDRLPLT	En_Gen
2.6 nM	6 of 6	2 of 18	KSSQSVMGEERNKNSVA	AASTREV	QQYHRLPLS	GP_Gibbs
690 pM	6 of 6	1 of 18	KLSQSQLYESRNKNNVA	NASQRES	QQYHRLPLS	GP_Gen
400 pM	6 of 6	4 of 18	KLSQSEQYESRNKNSVA	NASTRES	QQYHRLPLS	GP_Gen
2.2 nM	6 of 6	2 of 18	KLSQSVLYESRLKNSVA	EASTRES	QQYHRLPLS	GP_Gen
not detected	0 of 6	0 of 18	KMSQSVLYESYNKNSVA	WISTRES	QQYHRLPLS	Ctrl
not detected	0 of 6	0 of 18	LSSQSALYESRNKNSVA	WASTRES	QQYDRLPLS	Ctrl
650 pM	6 of 6	0 of 18	KLPQSVLYESRNKNSVA	NASTREW	QQYHRLPLS	GP_Gen
2.9 nM	6 of 6	0 of 18	KLQGSMLYEQRMKNSVA	NASQRMS	QQYHRLPLS	GP_Gibbs
1.4 nM	6 of 6	1 of 18	TISMLMNHMTRNSNNVA	NMDMRED	QQYDRLPLS	En_Gen
1.0 nM	6 of 6	2 of 18	KSSQSALYESRNVNSVA	GASTRDS	QQYHRLPLS	GP_HC
2.2 nM	6 of 6	0 of 18	KISQSGLYESRNKNSVA	WASTREQ	QQYHRLPLS	Ctrl
2.6 nM	6 of 6	1 of 18	MFDQHTMEEMDKNNAVA	EVTHLVN	QQYAQLPLI	En_Gibbs
not detected	0 of 6	1 of 18	KGSQSVLYESRNTNSVS	WASTRES	QQYHRLPLS	Ctrl
1.0 nM	6 of 6	0 of 18	KMSQSWLYESRNKNSVA	NASQREQ	QQYHRLPLS	GP_Gen
7.6 nM	6 of 6	1 of 18	KISQMSTIESIQHNSVA	QTSTRES	QQYDRLPLS	En_HC
not detected	0 of 6	0 of 18	ASSQSHRYESRNKNSVA	WASTRES	QQYHRLPLS	Ctrl
110 nM	4 of 6	0 of 18	IVSQLMLWGMHAKNSIA	EAQTRIN	QQYDRLPLF	En_Gen

A selection of 5 entries from above:

CDR-L1	CDR-L2	CDR-L3	group	Kd (apparent)	seen in	control signals
KMSQSWLYESRNKNSVA	NASQREQ	QQYHRLPLS	GP_Gen	1.0 nM	6 of 6	0 of 18
MISQIYNMGQFAINSVA	QASIRNA	QQYDRLPLT	En_Gen	44 nM	6 of 6	2 of 18
KLKYQADQYGMQWNNVA	HADIRAP	QQYSKLPLN	En_Gibbs	2.0 nM	6 of 6	3 of 18
KLQQSHLYESRNKNSVA	NASTREV	QQYHRLPLS	GP_Gen	3.9 nM	6 of 6	1 of 18
KSSIVVLYESHNKNSVA	DASTRMS	QQYHRLPLS	GP_HC	2.7 nM	6 of 6	0 of 18

Background: pairings of all light chain designs with three empty control strains gave a value in 4% of cases (median 430 nM, 5th percentile 38 nM). Values in that range, when seen in few replicates, are hard to tell from nonspecific mating. The control count says in how many pairings with the empty strains this scFv gave a signal.
A sequence measured in both rounds can read differently, since the two assays cover different ranges.

The measurements come from Li et al. 2023 (doi:10.1038/s41467-023-39022-2) through the FLAb antibody collection.